Experimental data reported in article PMC4624854 (Frontiers in Molecular Neuroscience, 2015).

Legend:
[1] = target: T1, α2 (T59A/A261G/A303S) GlyRs (Homo sapiens, UniProt P23416, A288G/A330S/T86A); test: whole-cell patch-clamp of Igly, mutant α2 (T59A/A261G/A303S) GlyRs in CHO cells; format: cell-based; conditions: read-out: glycine EC50 in control, cell illustrated in Figure 6C; no ginkgolic acid; one cell
T1 construct: expressed in transfected cells; host or cells: CHO
T1 sequence (P23416 28-452 T86A/A288G/A330S): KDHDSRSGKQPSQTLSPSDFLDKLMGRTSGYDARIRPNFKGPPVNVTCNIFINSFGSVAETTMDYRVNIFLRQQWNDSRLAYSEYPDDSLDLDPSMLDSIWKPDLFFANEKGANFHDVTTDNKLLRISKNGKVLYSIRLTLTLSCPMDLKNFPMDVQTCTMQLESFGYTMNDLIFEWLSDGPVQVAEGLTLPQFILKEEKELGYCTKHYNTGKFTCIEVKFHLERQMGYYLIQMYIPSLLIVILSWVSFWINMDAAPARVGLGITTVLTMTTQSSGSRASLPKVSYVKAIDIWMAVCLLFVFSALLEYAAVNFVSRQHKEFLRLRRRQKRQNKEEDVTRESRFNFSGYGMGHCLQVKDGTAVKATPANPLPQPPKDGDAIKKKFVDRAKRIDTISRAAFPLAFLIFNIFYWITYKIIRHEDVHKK

α2 GlyRs = target: T2, α2 GlyRs (Homo sapiens, UniProt P23416); test: whole-cell patch-clamp of Igly, homomeric α2 GlyRs in CHO cells; format: cell-based; conditions: read-out: EC50 to glycine; control, n = 10 (range and mean)
T2 construct: expressed in transfected cells; host or cells: CHO-K1
T2 sequence (P23416 28-452): T1 sequence (P23416 28-452 T86A/A288G/A330S) with A59T, G261A, S303A

EC50 [1]: 157 µM
EC50 (α2 GlyRs): 42 ± 2 µM
Compound: NCC(=O)O [glycine, reference compound]

Substitutions are numbered along the chain they refer to.
